# Like-named read-outs stand apart in the source and are kept apart here.
# By UniProt entry, the sequences of proteins in these tests, tags left out.
# UniProt P06730, whole entry: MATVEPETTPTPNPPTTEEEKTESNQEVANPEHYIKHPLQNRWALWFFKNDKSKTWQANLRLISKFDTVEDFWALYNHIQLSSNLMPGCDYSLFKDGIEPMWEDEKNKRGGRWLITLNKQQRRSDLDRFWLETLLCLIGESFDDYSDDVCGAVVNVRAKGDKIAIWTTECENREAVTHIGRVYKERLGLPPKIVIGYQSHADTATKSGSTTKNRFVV
# Target: recombinant eIF4E (Homo sapiens (Human), UniProt P06730)
# Assay: Fluorescence polarization competition assay for eIF4E binding potency
# Procedure: Compounds were screened for eIF4E binding potency using a fluorescence polarization competition assay. All binding reactions were performed in fluorescence polarization buffer (FPB) containing 20 mM Tris pH 7.5, 100 mM NaCl, 1 mM DTT, and 0.02% Tween-20. Final binding reactions contained 75 nM recombinant eIF4E (Beryllium, custom order), 20 nM EDA-m^7GDP-ATTO-550 (Jena Bioscience, NU-827-550) and varying concentrations of the inhibitory compound of interest. Final DMSO concentration in each reaction was 1%.
# eIF4E protein was pre-incubated with EDA-m^7GDP-ATTO-550 in FPB at 2× concentrations for 5 minutes prior to the addition of compounds. Compounds (100×) were prepared using 3-fold serial dilutions in 100% DMSO, and subsequently diluted 1:50 in FPB to produce 2× stocks. 50 μl of 2× eIF4E/EDA-m^7GDP-ATTO-550 were transferred to the wells of a 96-well half-area black flat bottom polystyrene plate. 50 μl of 2× test compound were added, and binding reactions were allowed to equilibrate for 30 minutes at room temperature while protected from light. The fluorescent polarization signal was detected using a Victor 2 multi-label counter (Perkin Elmer) and the concentration necessary to achieve inhibition of eIF4E/EDA-m^7GDP-ATTO-550 binding by 50% (IC50) was calculated using data from an 8-point compound dilution series.
# In Table 4A, IC50 values of less than 0.05 μM are labelled as “+++”, from 1 to 0.05 μM are labelled as “++”, and greater than 1 μM are labelled as “+”. ND=not determined.
# [1] = inhibition of eIF4E/EDA-m7GDP-ATTO-550 binding by 50%, Table 4B calculated values
# [2] = read-out: elF4E FP, fluorescence polarization competition, 75 nM recombinant eIF4E, 20 nM EDA-m7GDP-ATTO-550, IC50 class
# [3] = inhibition of eIF4E/EDA-m7GDP-ATTO-550 binding, calculated IC50 values, Table 4B
SMILES,IC50 [1] [nM],IC50 [2] [nM],IC50 [3] [nM]
Cc1cc(-c2c(C(F)(F)F)cc3nc(C)n(CCOc4cc(F)c(F)cc4-c4cc(C)nc5c(C(=O)O)csc45)c(=O)c3c2C#N)cc(C)n1,39.7,< 50,
Cc1nc2cnc(N3CCC([C@@H]4C[C@H]4C(F)(F)F)CC3)c(C#N)c2c(=O)n1CC#Cc1ccc(Cl)cc1-c1ccnc2c(C(=O)O)csc12 (relative stereo),,,11.2
Cc1nc2cnc(/C=C/C3(N(C)CC(F)F)CC3)c(C#N)c2c(=O)n1CCOc1ccc(Cl)cc1-c1ccnc2c(C(=O)O)csc12,13.2,< 50,
C=C(CF)CN1CCN(c2ncc3cc(C)n(CC#Cc4ccc(Cl)cc4-c4ccnc5c(C(=O)O)csc45)c(=O)c3c2C#N)CC1,,,13.4
Cc1nc2cnc(N3CCC4(CC3)CN(CC(C)(F)F)C4)c(C#N)c2c(=O)n1CC#Cc1ccc(Cl)cc1-c1ccnc2c(C(=O)NS(C)(=O)=O)csc12,,,18
Cc1cc2cnc(N3CCN(C(CF)CF)CC3)c(C#N)c2c(=O)n1CC#Cc1ccc(Cl)cc1-c1ccnc2c(C(=O)O)csc12,,,26
Cc1nc2cc(C(F)(F)F)cc(C#N)c2c(=O)n1CCOc1ccc(Cl)cc1-c1cccc2c(C(=O)O)coc12,47.4,< 50,
Cc1cc(-c2cc(Cl)ccc2OCCn2c(C)nc3c(C)nccc3c2=O)c2scc(C(=O)O)c2n1,33.3,< 50,
Cc1cc2cnc(N3CCN(CC4(C)CC4)CC3)c(C#N)c2c(=O)n1CC#Cc1ccc(Cl)cc1-c1ccnc2c(C(=O)O)csc12,,,21.7
Cc1cc(-c2cc(Cl)ccc2OCCn2c(C)nc3cc(C(F)(F)F)c(OCc4ccccn4)nc3c2=O)c2scc(C(=O)O)c2n1,18.8,< 50,
Cc1cc2cnc(N3CCN(C4(CCF)CC4)CC3)c(C#N)c2c(=O)n1CC#Cc1ccc(Cl)cc1-c1ccnc2c(C(=O)O)csc12,,,14
Cc1cc2cnc(N3CCN(C4(CF)CC4)CC3)c(C#N)c2c(=O)n1CC#Cc1ccc(Cl)cc1-c1ccnc2c(C(=O)O)csc12,,,32
Cc1cc2cnc(N3CCN(C(C)(C)CCF)CC3)c(C#N)c2c(=O)n1CC#Cc1ccc(Cl)cc1-c1ccnc2c(C(=O)O)csc12,,,6.15
Cc1nc2cnc(N3CC4(CCC4C4CC4)C3)c(C#N)c2c(=O)n1CCOc1ccc(Cl)cc1-c1ccnc2c(C(=O)O)csc12 (stereo not drawn),,,15.1
Cc1nc2cnc(N(C)[C@@H]3C[C@H]4CC[C@@H](C3)N4CC(F)F)c(C#N)c2c(=O)n1CC#Cc1ccc(Cl)cc1-c1ccnc2c(C(=O)O)csc12 (relative stereo),,,14.6
CN(C)Cc1c(C(F)(F)F)cc2ncn(CC#Cc3ccc(Cl)cc3-c3ccnc4c(C(=O)O)csc34)c(=O)c2c1C#N,73,50 to 1000,
Cc1cc2cnc(N3CCN(C4CC4(C)C)CC3)c(C#N)c2c(=O)n1CC#Cc1ccc(Cl)cc1-c1ccnc2c(C(=O)O)csc12 (stereo not drawn),,,31.6
Cc1nc2cnc(N3CC4(C3)CN(C(C)(C)CF)C4)c(C#N)c2c(=O)n1CCCc1ccc(Cl)cc1-c1ccnc2c(C(=O)O)csc12,12.4,< 50,
Cc1cc2cnc(N3CCN(CC(C)(F)CF)CC3)c(C#N)c2c(=O)n1CC#Cc1ccc(Cl)cc1-c1ccnc2c(C(=O)O)csc12 (stereo not drawn),,,17
Cc1nc2cc(C(F)(F)F)c(N3CCN(C4CC4)CC3)c(C#N)c2c(=O)n1CCOc1ccc(Cl)cc1-c1ccnc2c(C(=O)O)csc12 [compound 1291],14.7,< 50,
Cc1nc2cnc(N(c3cncs3)C3CCN(CC(F)F)CC3)c(C#N)c2c(=O)n1CC#Cc1ccc(Cl)cc1-c1ccnc2c(C(=O)O)csc12,,,15.1
Cc1cc2cnc(N3CCN(C4(C)CC4)CC3)c(C#N)c2c(=O)n1CC#Cc1ccc(Cl)cc1-c1ccnc2c(C(=O)O)csc12,,,25.2

SMILES,IC50 [1] [nM],IC50 [2] [nM],IC50 [3] [nM]
Cc1nc2cnc(N(C)C3CCN(CC(F)(F)C(C)C)CC3)c(C#N)c2c(=O)n1CC#Cc1ccc(Cl)cc1-c1ccnc2c(C(=O)O)csc12,10.7,< 50,
Cc1cc(-c2cc(Cl)ccc2OCCn2c(C)nc3cc(C(F)(F)F)c(N4CCC4)nc3c2=O)c2scc(C(=O)O)c2n1,45.1,< 50,
Cc1nc(N2CCN(CCF)CC2)c(C#N)c2c(=O)n(CCOc3ccc(Cl)cc3-c3ccnc4c(C(=O)O)csc34)c(C)nc12 [compound 1624],30.7,< 50,
Cc1nc2cnc(N3CCC(C4(CF)CC(F)(F)C4)CC3)c(C#N)c2c(=O)n1CCOc1ccc(Cl)cc1-c1ccnc2c(C(=O)O)csc12,,,11.7
Cc1cc2cc(OC(F)F)c(F)c(C#N)c2c(=O)n1CCOc1ccc(Cl)cc1-c1ccnc2c(C(=O)O)csc12,48.8,< 50,
Cc1cc2c(=O)n(CCOc3ccc(Cl)cc3-c3cc(C)nc4c(C(=O)O)csc34)c(C)nc2c(C)n1,36.7,< 50,
Cc1nc2ccc(N(C)C3CCN(CC(C)(F)F)CC3)cc2c(=O)n1CCOc1ccc(Cl)cc1-c1ccnc2c(C(=O)O)csc12,49.9,< 50,
Cc1nc2cnc(N(C)C3CCN(C)CC3)c(C#N)c2c(=O)n1CC#Cc1ccc(Cl)cc1-c1ccnc2c(C(=O)O)csc12 [compound 1495],,,16.7
CCS(=O)(=O)NC(=O)c1csc2c(-c3cc(Cl)ccc3C#CCn3c(C)nc4cnc(N(C)C5CCN(CC(C)(F)F)CC5)c(C#N)c4c3=O)ccnc12,,,3.96
Cc1cc2cnc(N3CCN(C(C)CF)CC3)c(C#N)c2c(=O)n1CC#Cc1ccc(Cl)cc1-c1ccnc2c(C(=O)O)csc12 (stereo not drawn),,,31.6
COCc1cc(-c2cc(Cl)ccc2OCCn2c(C)nc3cc(C(F)(F)F)c(N4CCN(C)CC4)c(C#N)c3c2=O)c2sc(C)c(C(=O)O)c2c1,,< 50,13
Cc1cc(-c2cc(Cl)ccc2OCCn2c(C)nc3cc(C(F)(F)F)c(-c4cnccn4)nc3c2=O)c2scc(C(=O)O)c2n1,10.6,< 50,
CSc1cc(C(F)(F)F)cc2nc(C)n(CCOc3ccc(Cl)cc3-c3ccnc4c(C(=O)O)csc34)c(=O)c12,67.4,50 to 1000,
Cc1cc2cnc(N3CCN(CCC(F)F)CC3)c(C#N)c2c(=O)n1CC#Cc1ccc(Cl)cc1-c1ccnc2c(C(=O)O)csc12,,,18.4
Cc1cc2cnc(N3CCN(C(C)(C)CF)CC3)c(C#N)c2c(=O)n1CC#Cc1ccc(Cl)cc1-c1ccnc2c(C(=O)O)csc12,,,39.1
Cc1nc(N2CC3(CNC3)C2)c(C#N)c2c(=O)n(CCOc3ccc(Cl)cc3-c3ccnc4c(C(=O)O)csc34)c(C)nc12,,,9.07
Cc1cc2cnc(N3CCN(CC(C)(C)F)CC3)c(C#N)c2c(=O)n1CC#Cc1ccc(Cl)cc1-c1ccnc2c(C(=O)O)csc12,,,14.6
Cc1cc(-c2c(C(F)(F)F)cc3nc(C)n(CCOc4ccc(F)cc4-c4cc(C)nc5c(C(=O)O)csc45)c(=O)c3c2C#N)cc(C)n1,1.36,< 50,
Cc1cc(-c2cc(Cl)ccc2OCCn2c(C)nc3cc(CN(C)C)c(OC(F)F)c(C#N)c3c2=O)c2scc(C(=O)O)c2n1,19.6,< 50,
Cc1nc2ccc(C(F)F)c(C#N)c2c(=O)n1CCOc1ccc(Cl)cc1-c1ccnc(C(=O)O)c1,7.89,< 50,
Cc1cc2cnc(N3CCN(C(C)(C)C(F)F)CC3)c(C#N)c2c(=O)n1CC#Cc1ccc(Cl)cc1-c1ccnc2c(C(=O)O)csc12,,,21.1

# Reference: patent publication US11286268B1, “EIF4E-inhibiting compounds and methods” (EFFECTOR THERAPEUTICS, INC., priority 2019, dated 2022)
